{"source": "patent US20220251158A1", "about": "“INTERMEDIATE FILAMENT-DERIVED PEPTIDES AND THEIR USES” (UNIVERSITAT DE LLEIDA, priority 2019, published 2022)", "type_in_all_cases": "cell-based", "key": {"[1]": {"test_system": "human PBMC (peripheral blood mononuclear cells)", "experiment": "Apoptosis/pyroptosis and cell death in human PBMC (annexin V/PI, Caspase-1, Caspase-3)", "method": "FIG. 6—Representative dot plots of apoptosis assay of human PBMC cells after culturing them with different peptides. Annexin V and PI positive cells were analysed after culturing 4×10^5 cells for 1 hour, 24 hours or 48 hours with peptide 72, or DIF-P, or DIF-P3K, or DIF-P8R or without stimulus (n=4).\nFIG. 7—Representative histograms of activated (cleaved) caspase-1 positive cells from human PBMC cultured with different peptides. 4×10^5 PBMC cells were cultured with peptide 72, or DIF-P, or DIF-P3K, or DIF-P8R, or Nigericin (as a positive control) or without stimulus for an hour and activated caspase-1 was measured with 660-YVAD-FMK (n=4). Positive cell percentage is resumed on the right of the figure (*=p<0.05).\nFIG. 8—Representative histograms of activated (cleaved) caspase-3 positive cells from human PBMC cultured with different peptides. 4×10^5 PBMC cells were cultured with peptide 72, or DIF-P, or DIF-P3K, or DIF-P8R, or staurosporine (as a positive control) or without stimulus for an hour and activated caspase-3 was measured with FAM-DEVD-FMK (n=4). Positive cell percentage is resumed on the right of the figure (*=p<0.05, **=p<0.01).\nFor cell death and apoptosis analysis, 400.000 of primary cells or 100.000 of cell line cells were incubated in 96-well plates in 200 μL of complete culture medium for 24 h at 37° C. and 5% CO2 in the absence or presence of 55 μM of different peptides. After 1 hour, 24 hours or 48 hours, apoptosis was measured by CFBlue Annexin V Apoptosis Detection Kit with PI (ANXVKCFB-100T, Immunostep), following kit protocol. For cleaved caspasa-3 intracellular staining, mononuclear cells were permeabilised following the manufacturer's instructions of the FoxP3 Staining Buffer Set (00-5523-00, eBioscience) and the cleaved caspasa-3-Pacific Blue (8788S, Cell Signalling) was used for staining. Cell suspensions were analysed by flow cytometry using FACS CANTO II instrumentation (BD, Biosciences, San Jose, Calif.) and Flowjo (version 8.7) software.\nFluorescent labeled inhibitors of caspases (FLICA) probe assays were performed in order to check intracellular activation of specific caspases and confirm previously obtained flow cytometry results by cleaved caspasa-3 antibody. FLICA staining was achieved following manufacturer's instructions, as described elsewhere (Doitsh, G. et al. Cell death by pyroptosis drives CD4 T-cell depletion in HIV-1 infection. Nature 2014, 505, 509-514), after incubating cells with 55 μM of different Peripherin peptides for 1 hour or 24 hours.\n(§1) The cytolytic activity (induction of apoptosis and/or pyroptosis) and production of pro-inflammatory cytokines in cell cultures have been analysed for peptides DIF-P, DIF-P3K and DIF-P8R, using peptide 72 as a negative control, in cultures of human PBMC (peripheral blood mononuclear cells). The induction of apoptosis and/or pyroptosis, and cell death was detected by flow cytometry analysis, determining the expression (presence) of annexin V in the cell membrane, and the staining of the cell nucleus with propidium iodide, respectively (FIG. 6). […] The production of pro-inflammatory cytokines (IL-6, IL-1β, TNF-α, IL-12p40, IL-23, IP-10, IFN-γ) is determined after incubation with the stimulus after 24 or 48 hours (FIG. 9)."}, "[2]": {"test_system": "human PBMC (peripheral blood mononuclear cells)", "experiment": "Pro-inflammatory cytokine production by human PBMC", "method": "FIG. 9—Concentrations of different cytokines produced by human PBMC cells cultured with peptides. 4×10^5 cells were incubated per well with peptide 72, or DIF-P, or DIF-P3K, or DIF-P8R, or Staurosporine, or Nigericine or without stimulus for 24 hours or 48 hours before collecting the supernatant. In the case of Staurosporine and Nigericine the production of cytokines was only analysed after 24 hours (*=p<0.05).\n(§2) Culture supernatants from mice proliferation assays were collected and IL-2, IL-4, IL-6, IFN-γ, IL-10, TNF-α and IL-17 cytokine amounts analysed by flow cytometry using CBA kit (560485, BD). For human cell cultures, the Legendplex Kit was used (BioLegend, 740502), which studied cytokines IL-12p70, TNF-α, IL-6, IL-4, IL-10, IL-1β, arginase, IL-1st, IL-12p40, IL-23, IFN-γ and IP-10.\nas §1"}, "[3]": {"test_system": "NOD.RAG-2−/− mouse splenocytes", "experiment": "Proliferation assay (CFSE)", "conditions": "versus control peptide 72, in vitro cultures", "method": "FIG. 16—Proliferation assay. No proliferation is observed for NOD.RAG-2−/− mouse splenocytes cultured with DIF-P. Peptide 72 is used as a negative control.\nHL-60, Jurkat and NALM-6 cells were grown and maintained in complete culture medium in a humidified 5% CO2, atmosphere at 37° C. […] Human splenocytes from buffy coats were collected by density gradient using Histopaque 1077 (Histopaque®-1077, 10771 sigma) as described elsewhere (Johnston, L., Harding, S. A. & La Flamme, A. C. Comparing methods for ex vivo characterization of human monocyte phenotypes and in vitro responses. Immunobiology 2015, 220, 1305-1310). Cells from bone marrow were obtained disrupting femur and tibia as explained elsewhere too (Liu, X. & Quan, N. Immune Cell Isolation from Mouse Femur Bone Marrow. Bio-protocol 5, 2015). Monocytes and neutrophils from bone marrow were purified using the Stemcell kits (19861 and 19762 subsequently) and the kit protocol was followed. Cells were incubated in 96-well tissue culture plates (4×10^5/well for primary cells and 1×10^5 for cells lines) at 37° C. in 5% CO2 in complete culture medium using 55 μM of different Peripherin peptides. For proliferation assays, cells were labelled with CFSE (C34554, life technologies). After 1 hour, 24 hours or 48 hours, cells were analysed by flow cytometry and culture supernatants stored at −80° C. until use. […]"}, "[4]": {"test_system": "NOD.RAG-2−/− mouse splenocytes", "experiment": "Cytokine release by NOD.RAG-2−/− mouse splenocytes", "conditions": "24 h and 48 h", "method": "FIG. 1—Cytokine concentration from mouse splenocytes cultured with peptides. Results of the analysis of the supernatants of cells incubated for 24 h and 48 h with peptides 72 and DIF-P (n=4); (A) splenocytes from NOD.RAG-2−/− mice; (B) splenocytes from NOD mice.\nFIG. 10—Concentrations of different cytokines produced by NOD.RAG2−/− splenocytes cultured with peptides. 4×10^5 cells were incubated per well with peptide 72, or DIF-P, or DIF-P3K, or DIF-P8R, or without stimulus for 24 hours or 48 hours before collecting the supernatant (*=p<0.05, **=p<0.01).\nHL-60, Jurkat and NALM-6 cells were grown and maintained in complete culture medium in a humidified 5% CO2, atmosphere at 37° C. […] Human splenocytes from buffy coats were collected by density gradient using Histopaque 1077 (Histopaque®-1077, 10771 sigma) as described elsewhere (Johnston, L., Harding, S. A. & La Flamme, A. C. Comparing methods for ex vivo characterization of human monocyte phenotypes and in vitro responses. Immunobiology 2015, 220, 1305-1310). Cells from bone marrow were obtained disrupting femur and tibia as explained elsewhere too (Liu, X. & Quan, N. Immune Cell Isolation from Mouse Femur Bone Marrow. Bio-protocol 5, 2015). Monocytes and neutrophils from bone marrow were purified using the Stemcell kits (19861 and 19762 subsequently) and the kit protocol was followed. Cells were incubated in 96-well tissue culture plates (4×10^5/well for primary cells and 1×10^5 for cells lines) at 37° C. in 5% CO2 in complete culture medium using 55 μM of different Peripherin peptides. For proliferation assays, cells were labelled with CFSE (C34554, life technologies). After 1 hour, 24 hours or 48 hours, cells were analysed by flow cytometry and culture supernatants stored at −80° C. until use.\nas §2"}, "[5]": {"test_system": "mouse splenocytes", "experiment": "Cell death (annexin V expression) of mouse splenocytes cultured with peptide fragments", "conditions": "splenocytes from NOD, NOD.RAG2−/− and C57Bl/6, 24 hours", "method": "HL-60, Jurkat and NALM-6 cells were grown and maintained in complete culture medium in a humidified 5% CO2, atmosphere at 37° C. […] Human splenocytes from buffy coats were collected by density gradient using Histopaque 1077 (Histopaque®-1077, 10771 sigma) as described elsewhere (Johnston, L., Harding, S. A. & La Flamme, A. C. Comparing methods for ex vivo characterization of human monocyte phenotypes and in vitro responses. Immunobiology 2015, 220, 1305-1310). Cells from bone marrow were obtained disrupting femur and tibia as explained elsewhere too (Liu, X. & Quan, N. Immune Cell Isolation from Mouse Femur Bone Marrow. Bio-protocol 5, 2015). […] After 1 hour, 24 hours or 48 hours, cells were analysed by flow cytometry and culture supernatants stored at −80° C. until use.\nFor cell death and apoptosis analysis, 400.000 of primary cells or 100.000 of cell line cells were incubated in 96-well plates in 200 μL of complete culture medium for 24 h at 37° C. and 5% CO2 in the absence or presence of 55 μM of different peptides. After 1 hour, 24 hours or 48 hours, apoptosis was measured by CFBlue Annexin V Apoptosis Detection Kit with PI (ANXVKCFB-100T, Immunostep), following kit protocol. […] Cell suspensions were analysed by flow cytometry using FACS CANTO II instrumentation (BD, Biosciences, San Jose, Calif.) and Flowjo (version 8.7) software."}}, "data": [{"smiles": "CC[C@H](C)[C@H](NC(=O)[C@H](CCC(=O)O)NC(=O)[C@@H](NC(=O)[C@H](CC(=O)O)NC(=O)[C@H](CC(C)C)NC(=O)[C@H](C)NC(=O)[C@H](CCSC)NC(=O)[C@H](CCCCN)NC(=O)[C@@H](NC(=O)[C@H](CC(N)=O)NC(=O)[C@H](CC(C)C)NC(=O)[C@@H](N)CC(C)C)C(C)C)[C@@H](C)CC)C(=O)N[C@@H](C)C(=O)N[C@H](C(=O)N[C@@H](Cc1ccc(O)cc1)C(=O)N[C@@H](CCCNC(=N)N)C(=O)N[C@@H](CCCCN)C(=O)N[C@@H](CC(C)C)C(=O)N[C@@H](CC(C)C)C(=O)N[C@@H](CCC(=O)O)C(=O)O)[C@@H](C)O", "note": "[DIF-P]", "values": [{"measurement": "induction of apoptosis and/or pyroptosis", "setting": "[1]; 55 μM", "result": "induce apoptosis and/or pyroptosis"}, {"measurement": "cell death by apoptosis (comparison between peptides)", "setting": "[1]; Caspase-3 after 1 hour", "result": "less cell death by apoptosis compared to peptides DIF-P3K or DIF-P8R"}, {"measurement": "secretion of pro-inflammatory cytokines", "setting": "[2]; 24 or 48 hours", "result": "induce secretion of pro-inflammatory cytokines"}, {"measurement": "production of pro-inflammatory cytokines (comparison between peptides)", "setting": "[2]; leukocytes that remain alive at the end of the culture", "result": "significant production of pro-inflammatory cytokines"}, {"measurement": "leukocyte proliferation", "setting": "[3]", "result": "does not stimulate leukocyte proliferation"}, {"measurement": "release of TNF-α", "setting": "[4]; NOD.RAG-2−/− splenocytes", "result": "more efficient at inducing release of TNF-α"}, {"measurement": "production of pro-inflammatory cytokines (FIG. 1)", "setting": "[4]; mouse splenocytes (NOD.RAG-2−/− and NOD)", "result": "ability to induce the production of pro-inflammatory cytokines"}, {"measurement": "cell death (FIG. 2)", "setting": "[5]", "result": "cell death"}]}]}
